The record followed here is PMC4507786.

The chains behind the UniProt entries cited, without tags or fusion partners. Residues count along the entry.
UniProt P21580, 590-635: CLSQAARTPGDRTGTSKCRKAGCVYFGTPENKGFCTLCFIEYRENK

For the assay, the target named is A20 ZnF4 590-635 (Homo sapiens) (UniProt P21580). The assay can be described thus: NMR.

As usually defined, the Kd is the free concentration of one partner at which half of the binding sites on the other are occupied at equilibrium, for simple one-to-one binding. The low end stands for a tighter complex, the high end for a looser complex. “K63-linked diubiquitin (K63-Ub2) (from UniProt P0CG48)” displayed a Kd of 384 µM.
